Reference: PubChem BioAssay AID488895 (Broad Institute, 2010)
This is a selection; strong and weak results do not stand in their true shares. Active and inactive are the calls of the source.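 How the source made its calls: active means mean replicate inhibition at least 50% and at least half of replicates individually reaching 50%; inconclusive means only one of the two criteria met; inactive means neither criterion met.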

Test: blockers of twin-arginine translocation in E. coli – MC4100, TorA-mCherry reporter, fluorescence, single point, primary screen (AID 488895);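 further: exported cargo escapes ClpAP degradation while cytoplasmic cargo is degraded and loses fluorescence; 0% = median of neutral control wells and 100% = median of NaSCN control wells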
Conditions: E. coli MC4100 TorA-mCherry Tat export, at 10 µM, active compounds read high

Row | SMILES | inhibition
1 | CCC(=O)N(c1ccccc1)C1(COC)CCN(CCn2nnn(CC)c2=O)CC1 | inactive: -7.63%
2 | CCC(=O)N(c1ccccc1)C1(COC)CCN(CCc2cccs2)CC1 | inactive: -0.895%
